Values quoted from earlier work as cited in US20150366901A1, “Methods of Treating Heart Failure” (The Trustees of the University of Pennsylvania, priority 2013, published 2015).

Tested on: healthy volunteers
Settings: ingestion of 8 mmol, 3 hours post-ingestion

For inorganic nitrate, the plasma nitrates is listed as “increased plasma nitrates”.
